The text below walks through data of article PMC4492759, “Pharmacological profiling of the hemodynamic effects of cannabinoid ligands: a combined in vitro and in vivo approach” (Pharmacology Research & Perspectives, 2015).

By UniProt entry, the sequences of proteins in these tests, tags left out.
UniProt P47746, whole entry: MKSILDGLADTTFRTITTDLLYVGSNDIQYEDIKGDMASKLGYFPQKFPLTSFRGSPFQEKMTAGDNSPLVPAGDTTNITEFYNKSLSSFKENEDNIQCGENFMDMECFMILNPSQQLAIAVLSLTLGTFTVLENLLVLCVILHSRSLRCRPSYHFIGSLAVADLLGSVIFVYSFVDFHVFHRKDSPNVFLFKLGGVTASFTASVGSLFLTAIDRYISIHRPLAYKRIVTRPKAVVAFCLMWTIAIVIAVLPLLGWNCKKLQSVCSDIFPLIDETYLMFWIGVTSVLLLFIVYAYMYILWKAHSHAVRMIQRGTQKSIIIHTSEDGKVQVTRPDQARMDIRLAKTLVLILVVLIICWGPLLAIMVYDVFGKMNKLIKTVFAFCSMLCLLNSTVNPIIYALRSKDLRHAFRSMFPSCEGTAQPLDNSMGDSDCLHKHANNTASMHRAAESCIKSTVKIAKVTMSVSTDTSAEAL
UniProt P20272, whole entry: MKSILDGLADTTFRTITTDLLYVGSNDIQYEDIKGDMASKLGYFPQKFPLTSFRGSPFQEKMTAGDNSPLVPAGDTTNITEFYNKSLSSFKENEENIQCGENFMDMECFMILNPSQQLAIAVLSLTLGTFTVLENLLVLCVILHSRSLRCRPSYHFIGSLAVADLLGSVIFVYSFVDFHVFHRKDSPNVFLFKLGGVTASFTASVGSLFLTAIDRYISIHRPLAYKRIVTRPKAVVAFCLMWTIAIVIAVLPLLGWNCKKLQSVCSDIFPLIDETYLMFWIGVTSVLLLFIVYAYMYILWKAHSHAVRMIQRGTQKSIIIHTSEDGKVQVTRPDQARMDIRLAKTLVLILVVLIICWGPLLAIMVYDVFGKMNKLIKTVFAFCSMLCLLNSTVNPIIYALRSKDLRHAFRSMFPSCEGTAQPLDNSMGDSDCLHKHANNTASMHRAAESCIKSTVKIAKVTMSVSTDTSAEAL

Entries after “also recorded” stand apart in the source; their conditions may differ. Where only a bound is given, the exact number is not on record here.

One assay addresses T1, mouse CB1 (Mus musculus, UniProt P47746).
T1 construct: expressed in transfected cells; host or cells: HEK293s, transient transfection; membranes prepared
The assay can be described thus: [35S]-GTPγS binding, membranes of HEK293s cells transfected with mouse CB1. It counts as biochemical. The conditions noted are these: agonist mode; mean ± SEM, at least three experiments. On the procedure: (§1) HEK293s cells were transiently transfected with cDNA encoding rat or mouse CB1 or GPR55 and membranes were prepared as previously described (Ryberg et al. [2007]). In short, agonist activities in [^35S]-GTPγS binding assays were determined by the addition of ligand at 30°C for 45 min in membrane buffer [50 mmol/L NaCl, 5 mmol/L MgCl2, 0.5 mmol/L EDTA, 25 mmol/L HEPES (all Sigma, Gillingham, Dorset, UK); pH 7.4] containing 0.05 μg μL^−1 of membrane protein with 0.01% BSA, 25 μmol/L guanosine 5′-diphosphate (GDP), 100 μmol/L dithiothreitol (DTT), and 0.53 nmol/L [^35S]GTPγS (PerkinElmer) in a final volume of 200 μL. Antagonist assays were performed similarly, with the addition of an EC80 concentration of CP55940 as a nonselective CB1/CB2 agonist in conjunction with the ligand to be tested. Nonspecific binding was determined in the presence of 20 μmol/L unlabeled GTPγS. The reaction was terminated by addition of ice-cold wash buffer (50 mmol/L Tris-HCl, 5 mmol/L MgCl2, 50 mmol/L NaCl; pH 7.4) followed by rapid filtration under vacuum through 96-well B-glass fiber filter plates (PerkinElmer, Waltham, Massachusetts, USA) using a Biomek FX (Beckman Coulter, Bromma, Sweden). The filter plates were dried (30 min at 50°C) before scintillation liquid (PerkinElmer) was added onto the filters and the bound radioactivity was determined using a scintillation counter (Wallac). […]
On the technique in general: Binding of GTPγS marks nucleotide exchange on a G protein.

Another assay concerns the target T2, rat CB1 (Rattus norvegicus, UniProt P20272).
T2 construct: expressed in transfected cells; host or cells: HEK293s, transient transfection; membranes prepared
The assay can be described thus: [35S]-GTPγS binding, membranes of HEK293s cells transfected with rat CB1. It counts as biochemical. The conditions noted are these: agonist mode; mean ± SEM, at least three experiments. The procedure:
as §1

Assay [1] has as its system anesthetized WT and GPR55−/− mice. Nature of the assay: Hemodynamic responses (MABP, HR) in anesthetized WT and GPR55−/− mice. Particulars: AM251 alone (1 and 3 mg kg−1). It counts as in vivo, mouse. The procedure: (§2) All experiments performed under terminal anesthesia were carried out following approval by Robert Gordon University Animal Ethics Panel. Anesthesia was induced in male SD rats (200–300 g) by sodium pentobarbital [60 mg kg^−1 intraperitoneal (i.p.) injection]. Male/female WT and GPR55^−/− mice (25–35 g) were anesthetized with a mixture of ketamine (120 mg kg^−1) and xylazine (16 mg kg^−1) via i.p. injection. For both species the trachea was cannulated to allow artificial respiration with room air when required (54 strokes min^−1 and tidal volume 1.5 mL 100 g^−1 for rats; 120 strokes min^−1 and tidal volume 100 μL 10 g^−1 for mice) and the left carotid artery and right jugular vein were cannulated for the measurement of arterial BP (MLT844 Physiological Pressure Transducer; AD Instruments, Oxford, UK) and drug administration, respectively. Core temperature was monitored continuously and maintained at 37–38°C with the aid of a Vetcare heated pad (Harvard Apparatus Ltd., Boston, Massachusetts, USA). Anesthesia was monitored by foot pinch reflex and maintained throughout by administration of additional doses of anesthetic (rats: 3–4 mg kg^−1 of sodium pentobarbital salt i.v.; mice: 50 μL 25 g^−1of ketamine/xylazine i.p.) every 40 min, or as required. […] Heart rate (HR) was calculated from the ECG and recorded throughout the entire experimental period. […]

In assay [2] the test system is anesthetized Sprague–Dawley (SD) rats. Nature of the assay: Hemodynamic responses (MABP, HR) in anesthetized normotensive rats. It counts as in vivo, rat. On the procedure: as §2

A word on the EC50: it is the midpoint of the concentration-response curve. Read a low EC50 as greater potency. As for `CCCCC/C=C\C/C=C\C/C=C\C/C=C\CCCC(=O)NCCO` [AEA, anandamide], the EC50 at mouse CB1 came out at 25 ± 8 nM; at rat CB1, 34 ± 2 nM.
As to `Cc1c(C(=O)NN2CCCCC2)nn(-c2ccc(Cl)cc2Cl)c1-c1ccc(I)cc1` [AM251, 1-(2,4-dichlorophenyl)-5-(4-iodophenyl)-4-methyl-N-(piperidin-1-yl)-1H-pyrazole-3-carboxamide], the blood pressure response result in assay [1] (GPR55−/− mice) is “but not; also recorded: blunted response”; in assay [1] (WT mice) it was “induced a depressor response; also recorded: small and transient, but significant, depressor response”; in assay [2] (AM251 (1 and 3 mg kg−1) in the presence of CBD (50 μg kg−1)), “induced a depressor response”; in assay [2] (AM251 on its own (1 and 3 mg kg−1)) it was “small and transient, but significant, depressor response”.
For `C=C(C)[C@@H]1CCC(C)=C[C@H]1c1c(O)cc(CCCCC)cc1O` [CBD, cannabidiol], the half-maximal effective concentration (EC50) on rat CB1 is over 30000 nM.
